Read-outs that look alike come from different tables or passages of the source.
Assays:
[1] = target: EGFR D19TMCS (del19/T790M/C797S) (Homo sapiens, UniProt P00533, C797S/DEL746-750/T790M); assay: Biochemical EGFR kinase inhibition (Lance Ultra TR-FRET), del19/T790M/C797S; details: read-out: EGFR D19TMCS IC50
EGFR LRCS (L858R/C797S) = EGFR LRCS (L858R/C797S) (Homo sapiens, UniProt P00533, C797S/L858R); assay: Biochemical EGFR kinase inhibition (Lance Ultra TR-FRET), L858R/C797S; details: read-out: EGFR LRCS IC50
[2] = target: EGFR LRTMCS (L858R/T790M/C797S) (Homo sapiens, UniProt P00533, C797S/L858R/T790M); assay: Biochemical EGFR kinase inhibition (Lance Ultra TR-FRET), L858R/T790M/C797S; details: read-out: EGFR LRTMCS IC50
EGFR D19CS (del19/C797S) = EGFR D19CS (del19/C797S) (Homo sapiens, UniProt P00533, C797S/DEL746-750); assay: Biochemical EGFR kinase inhibition (Lance Ultra TR-FRET), del19/C797S; details: read-out: EGFR D19CS IC50
EGFR WT = EGFR WT (Homo sapiens, UniProt P00533); assay: Biochemical EGFR kinase inhibition (Lance Ultra TR-FRET), wildtype; details: read-out: EGFR WT IC50; ATP at Km

By UniProt entry, the sequences of proteins in these tests, tags left out. Where a name states a change or a piece, a line headed by the entry shows the natural chain unless it says otherwise. Chains listed by the source or under a name are the forms on record and can include a tag or linker. Residues count along the entry.
UniProt P00533, 25-1210 C797S/L858R limits assumed: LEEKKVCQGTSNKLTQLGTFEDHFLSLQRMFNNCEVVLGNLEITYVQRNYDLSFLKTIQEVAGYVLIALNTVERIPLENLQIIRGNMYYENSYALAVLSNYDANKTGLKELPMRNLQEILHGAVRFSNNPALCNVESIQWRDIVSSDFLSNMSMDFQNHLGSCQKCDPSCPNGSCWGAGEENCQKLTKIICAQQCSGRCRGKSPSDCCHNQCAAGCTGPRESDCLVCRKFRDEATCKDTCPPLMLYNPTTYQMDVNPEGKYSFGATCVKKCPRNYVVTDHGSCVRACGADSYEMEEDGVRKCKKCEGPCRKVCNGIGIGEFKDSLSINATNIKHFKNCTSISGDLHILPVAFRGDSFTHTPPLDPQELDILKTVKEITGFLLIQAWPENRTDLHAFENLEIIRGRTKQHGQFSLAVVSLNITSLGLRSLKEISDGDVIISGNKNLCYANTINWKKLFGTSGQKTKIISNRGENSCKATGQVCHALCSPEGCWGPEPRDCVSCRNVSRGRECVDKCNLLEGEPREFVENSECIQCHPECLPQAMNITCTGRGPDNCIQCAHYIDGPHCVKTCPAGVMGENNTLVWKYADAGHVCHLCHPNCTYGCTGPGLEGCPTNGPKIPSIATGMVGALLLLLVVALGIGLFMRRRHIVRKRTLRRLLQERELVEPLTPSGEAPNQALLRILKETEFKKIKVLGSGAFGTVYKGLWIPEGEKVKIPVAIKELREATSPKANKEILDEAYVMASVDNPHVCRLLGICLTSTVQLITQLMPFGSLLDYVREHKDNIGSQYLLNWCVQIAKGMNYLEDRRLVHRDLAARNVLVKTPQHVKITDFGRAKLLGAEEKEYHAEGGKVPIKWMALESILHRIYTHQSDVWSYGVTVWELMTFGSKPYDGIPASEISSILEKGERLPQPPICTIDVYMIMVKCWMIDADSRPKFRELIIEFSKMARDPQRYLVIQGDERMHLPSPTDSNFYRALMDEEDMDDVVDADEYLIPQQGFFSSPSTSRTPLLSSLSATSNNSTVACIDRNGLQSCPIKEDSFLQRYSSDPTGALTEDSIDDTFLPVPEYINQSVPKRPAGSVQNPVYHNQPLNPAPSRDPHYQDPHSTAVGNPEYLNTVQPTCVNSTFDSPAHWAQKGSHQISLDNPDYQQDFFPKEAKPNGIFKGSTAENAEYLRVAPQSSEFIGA
UniProt P00533, 25-1210 T790M/C797S/L858R limits assumed: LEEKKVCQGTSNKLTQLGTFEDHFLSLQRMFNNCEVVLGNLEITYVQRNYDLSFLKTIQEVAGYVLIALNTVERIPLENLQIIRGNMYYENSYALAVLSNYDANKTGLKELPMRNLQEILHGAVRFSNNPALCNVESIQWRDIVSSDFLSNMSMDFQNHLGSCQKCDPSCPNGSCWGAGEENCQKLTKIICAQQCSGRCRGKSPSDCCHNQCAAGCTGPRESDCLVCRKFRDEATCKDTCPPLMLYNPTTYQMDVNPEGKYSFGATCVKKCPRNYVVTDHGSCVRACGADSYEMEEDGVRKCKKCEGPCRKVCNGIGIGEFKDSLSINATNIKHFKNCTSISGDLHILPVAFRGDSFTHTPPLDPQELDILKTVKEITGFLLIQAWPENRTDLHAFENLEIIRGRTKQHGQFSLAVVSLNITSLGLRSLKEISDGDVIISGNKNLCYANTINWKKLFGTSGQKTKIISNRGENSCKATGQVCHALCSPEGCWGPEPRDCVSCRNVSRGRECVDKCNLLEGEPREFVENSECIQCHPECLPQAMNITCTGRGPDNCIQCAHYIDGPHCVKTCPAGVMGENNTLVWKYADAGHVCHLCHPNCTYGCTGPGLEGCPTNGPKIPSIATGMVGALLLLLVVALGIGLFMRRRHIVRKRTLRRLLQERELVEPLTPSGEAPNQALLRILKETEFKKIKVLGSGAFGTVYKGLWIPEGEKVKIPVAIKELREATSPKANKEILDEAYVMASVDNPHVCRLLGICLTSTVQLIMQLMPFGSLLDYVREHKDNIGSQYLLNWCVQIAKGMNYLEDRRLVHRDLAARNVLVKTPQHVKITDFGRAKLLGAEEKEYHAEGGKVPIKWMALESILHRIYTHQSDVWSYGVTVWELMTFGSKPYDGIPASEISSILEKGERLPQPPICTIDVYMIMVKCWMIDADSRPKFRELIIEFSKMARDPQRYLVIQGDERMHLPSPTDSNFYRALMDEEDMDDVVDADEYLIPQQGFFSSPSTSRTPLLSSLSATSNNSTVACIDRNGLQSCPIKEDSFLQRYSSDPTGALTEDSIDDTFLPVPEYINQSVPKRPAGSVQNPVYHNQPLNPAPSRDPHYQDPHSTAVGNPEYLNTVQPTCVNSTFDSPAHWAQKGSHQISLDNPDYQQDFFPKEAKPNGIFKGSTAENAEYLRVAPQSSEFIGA
UniProt P00533, with tags, fused parts or gaps DEL746-750/C797S limits assumed: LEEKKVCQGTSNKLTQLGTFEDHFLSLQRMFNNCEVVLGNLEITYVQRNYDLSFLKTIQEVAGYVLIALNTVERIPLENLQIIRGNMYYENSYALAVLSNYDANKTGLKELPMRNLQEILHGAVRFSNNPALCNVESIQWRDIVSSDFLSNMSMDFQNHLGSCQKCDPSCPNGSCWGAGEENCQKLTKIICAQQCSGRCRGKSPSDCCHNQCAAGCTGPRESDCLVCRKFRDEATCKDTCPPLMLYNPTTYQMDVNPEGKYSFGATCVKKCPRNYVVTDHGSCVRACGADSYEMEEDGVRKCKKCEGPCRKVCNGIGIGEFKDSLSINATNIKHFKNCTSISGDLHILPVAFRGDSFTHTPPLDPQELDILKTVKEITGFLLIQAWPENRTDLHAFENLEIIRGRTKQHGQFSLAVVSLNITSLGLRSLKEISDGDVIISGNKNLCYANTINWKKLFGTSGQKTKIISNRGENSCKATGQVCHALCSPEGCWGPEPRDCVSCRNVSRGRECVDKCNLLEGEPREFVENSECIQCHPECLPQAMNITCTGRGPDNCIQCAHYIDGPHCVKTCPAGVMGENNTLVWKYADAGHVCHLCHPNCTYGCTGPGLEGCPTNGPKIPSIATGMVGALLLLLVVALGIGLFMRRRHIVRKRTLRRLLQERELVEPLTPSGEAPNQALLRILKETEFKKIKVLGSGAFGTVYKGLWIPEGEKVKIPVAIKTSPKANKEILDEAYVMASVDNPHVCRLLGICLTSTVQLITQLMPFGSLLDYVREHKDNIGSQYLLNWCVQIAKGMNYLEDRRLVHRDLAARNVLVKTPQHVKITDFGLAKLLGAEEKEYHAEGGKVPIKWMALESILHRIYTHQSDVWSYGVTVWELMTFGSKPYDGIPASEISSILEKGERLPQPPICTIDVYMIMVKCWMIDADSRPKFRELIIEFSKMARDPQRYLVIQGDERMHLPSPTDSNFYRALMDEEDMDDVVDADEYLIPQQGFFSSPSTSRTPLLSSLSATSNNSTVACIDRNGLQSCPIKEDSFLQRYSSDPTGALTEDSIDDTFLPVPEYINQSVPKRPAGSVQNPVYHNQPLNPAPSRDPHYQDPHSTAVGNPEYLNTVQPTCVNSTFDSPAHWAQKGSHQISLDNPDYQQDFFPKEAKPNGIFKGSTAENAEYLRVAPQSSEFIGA
UniProt P00533, with tags, fused parts or gaps DEL746-750/T790M/C797S limits assumed: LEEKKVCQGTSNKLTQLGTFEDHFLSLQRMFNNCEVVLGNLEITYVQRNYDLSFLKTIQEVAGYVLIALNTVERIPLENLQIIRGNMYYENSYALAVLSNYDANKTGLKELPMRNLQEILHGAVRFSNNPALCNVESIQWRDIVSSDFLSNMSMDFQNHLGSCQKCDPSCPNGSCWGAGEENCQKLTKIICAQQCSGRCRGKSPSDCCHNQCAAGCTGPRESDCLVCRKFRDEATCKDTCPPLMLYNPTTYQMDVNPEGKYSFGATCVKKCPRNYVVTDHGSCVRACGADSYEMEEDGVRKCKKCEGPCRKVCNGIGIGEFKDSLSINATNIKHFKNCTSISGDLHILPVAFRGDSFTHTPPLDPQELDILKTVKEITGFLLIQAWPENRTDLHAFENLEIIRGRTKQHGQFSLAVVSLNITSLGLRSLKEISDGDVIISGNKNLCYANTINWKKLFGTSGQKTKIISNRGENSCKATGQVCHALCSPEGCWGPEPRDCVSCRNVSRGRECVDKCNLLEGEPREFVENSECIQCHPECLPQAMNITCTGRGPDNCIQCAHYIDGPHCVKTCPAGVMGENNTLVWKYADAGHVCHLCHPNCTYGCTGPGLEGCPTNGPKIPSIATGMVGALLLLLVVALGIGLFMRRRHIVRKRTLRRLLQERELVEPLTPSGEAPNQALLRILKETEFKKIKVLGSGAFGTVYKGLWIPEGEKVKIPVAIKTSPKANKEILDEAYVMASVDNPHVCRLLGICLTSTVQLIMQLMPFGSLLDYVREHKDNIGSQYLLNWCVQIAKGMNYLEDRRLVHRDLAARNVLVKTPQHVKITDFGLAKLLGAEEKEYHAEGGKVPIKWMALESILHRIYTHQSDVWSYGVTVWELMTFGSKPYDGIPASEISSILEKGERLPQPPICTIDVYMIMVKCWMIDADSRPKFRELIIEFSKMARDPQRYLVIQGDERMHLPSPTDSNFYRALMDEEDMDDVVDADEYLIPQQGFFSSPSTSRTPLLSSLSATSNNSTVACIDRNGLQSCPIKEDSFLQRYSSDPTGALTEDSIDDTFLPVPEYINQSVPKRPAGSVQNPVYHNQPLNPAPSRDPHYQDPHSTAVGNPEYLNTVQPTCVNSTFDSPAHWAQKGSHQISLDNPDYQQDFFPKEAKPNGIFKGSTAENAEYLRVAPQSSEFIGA
UniProt P00533, 25-1210 limits assumed: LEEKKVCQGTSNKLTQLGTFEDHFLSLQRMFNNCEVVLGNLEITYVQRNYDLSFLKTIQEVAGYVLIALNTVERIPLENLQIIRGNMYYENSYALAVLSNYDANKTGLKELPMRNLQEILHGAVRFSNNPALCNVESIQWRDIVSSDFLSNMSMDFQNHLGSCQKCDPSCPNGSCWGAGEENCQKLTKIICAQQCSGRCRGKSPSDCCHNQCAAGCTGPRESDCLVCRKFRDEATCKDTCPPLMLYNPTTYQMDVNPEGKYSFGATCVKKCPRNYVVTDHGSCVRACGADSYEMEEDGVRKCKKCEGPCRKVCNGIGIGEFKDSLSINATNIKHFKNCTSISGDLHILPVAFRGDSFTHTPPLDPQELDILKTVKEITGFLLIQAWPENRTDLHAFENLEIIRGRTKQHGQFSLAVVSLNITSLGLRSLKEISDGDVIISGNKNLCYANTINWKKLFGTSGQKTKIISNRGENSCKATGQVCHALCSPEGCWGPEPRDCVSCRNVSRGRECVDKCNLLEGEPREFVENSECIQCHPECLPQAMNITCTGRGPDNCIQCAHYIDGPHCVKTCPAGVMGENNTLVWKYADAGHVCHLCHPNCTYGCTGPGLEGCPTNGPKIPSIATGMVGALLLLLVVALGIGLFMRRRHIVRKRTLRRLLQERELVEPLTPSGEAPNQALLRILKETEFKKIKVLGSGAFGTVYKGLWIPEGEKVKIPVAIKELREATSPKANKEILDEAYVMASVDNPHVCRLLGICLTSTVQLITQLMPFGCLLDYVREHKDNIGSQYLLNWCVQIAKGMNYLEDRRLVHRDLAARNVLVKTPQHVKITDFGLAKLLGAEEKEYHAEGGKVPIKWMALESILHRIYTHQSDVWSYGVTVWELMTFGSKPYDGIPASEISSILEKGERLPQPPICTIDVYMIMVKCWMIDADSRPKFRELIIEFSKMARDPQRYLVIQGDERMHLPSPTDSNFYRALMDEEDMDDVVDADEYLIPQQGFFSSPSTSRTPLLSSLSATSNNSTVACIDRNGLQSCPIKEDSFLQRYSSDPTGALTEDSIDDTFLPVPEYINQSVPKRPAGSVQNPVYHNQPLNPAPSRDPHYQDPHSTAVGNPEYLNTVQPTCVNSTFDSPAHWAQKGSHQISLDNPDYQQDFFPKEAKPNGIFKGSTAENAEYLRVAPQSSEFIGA

IC50 ([1]; 1 mM ATP) [nM] | IC50 ([1]; ATP at Km) [nM] | IC50 (EGFR LRCS (L858R/C797S); 1 mM ATP) [nM] | IC50 (EGFR LRCS (L858R/C797S); ATP at Km) [nM] | IC50 ([2]; 1 mM ATP) [nM] | IC50 ([2]; ATP at Km) [nM] | IC50 (EGFR D19CS (del19/C797S); 1 mM ATP) [nM] | IC50 (EGFR D19CS (del19/C797S); ATP at Km) [nM] | IC50 (EGFR WT) [nM] | Structure (SMILES)
10 to 100 | < 10 | > 1000 | 100 to 1000 | 100 to 1000 | < 10 | 100 to 1000 | 100 to 1000 | 100 to 1000 | C[C@@H]1CCOc2c(cnn2C)-c2nccc(n2)Nc2cc(c(C#Cc3cnn(CCF)c3)cn2)N1
10 to 100 | < 10 | > 1000 | > 1000 | 10 to 100 | < 10 | > 1000 | > 1000 | 100 to 1000 | C[C@H]1CCOc2c(cnn2CC(F)(F)F)-c2nccc(n2)Nc2cc(c(C#Cc3cnn(CC(F)(F)F)c3)cn2)N1
< 10 | < 10 | > 1000 | 10 to 100 | 10 to 100 | < 10 | 100 to 1000 | 10 to 100 | 10 to 100 | Cn1cc(C#Cc2cnc3cc2NCC2(CC2)COc2c(cnn2C)-c2nccc(n2)N3)cn1
< 10 | < 10 | 100 to 1000 | 10 to 100 | < 10 | < 10 | 10 to 100 | < 10 | 10 to 100 | C[C@H]1CCOc2c(cnn2C)-c2nccc(n2)Nc2cc(c(C#Cc3cnn(C4CC4(F)F)c3)cn2)N1 (stereo partly drawn)
< 10 | < 10 | 100 to 1000 | 10 to 100 | 10 to 100 | < 10 | 100 to 1000 | 10 to 100 | 10 to 100 | C[C@H]1CCOc2c(cnn2C)-c2cc(ccn2)Nc2cc(c(C#Cc3cnn(C)c3)cn2)N1
10 to 100 | < 10 | > 1000 | 10 to 100 | 10 to 100 | < 10 | > 1000 | 100 to 1000 | > 1000 | C[C@@H]1CCOc2c(cnn2C)-c2nccc(n2)Nc2cc(c(C#Cc3cnn(CC(F)F)c3)cn2)N1
< 10 | < 10 | > 1000 | 100 to 1000 | 10 to 100 | < 10 | > 1000 | 100 to 1000 | 100 to 1000 | Cn1cc(C#Cc2cnc3cc2NC[C@H](F)COc2c(cnn2C)-c2nccc(n2)N3)cn1
< 10 | < 10 | 100 to 1000 | < 10 | < 10 | < 10 | 10 to 100 | < 10 | 10 to 100 | C[C@H]1CCOc2c(cnn2C)-c2nccc(n2)Nc2cc(c(C#Cc3cnn(C)c3)cn2)N1
< 10 | < 10 | 100 to 1000 | < 10 | 10 to 100 | < 10 | 100 to 1000 | 10 to 100 | 10 to 100 | Cc1nn(C)c2c1-c1nccc(n1)Nc1cc(c(C#Cc3ccc(N4CCOCC4)cc3)cn1)NCC[C@H](C)O2
10 to 100 | 10 to 100 | > 1000 | 100 to 1000 | 100 to 1000 | 10 to 100 | > 1000 | 100 to 1000 | 100 to 1000 | Cn1ncc2c1OCCCNc1cc(ncc1C#Cc1cnn(CC(F)(F)F)c1)Nc1ccnc-2n1
< 10 | < 10 | 100 to 1000 | < 10 | 10 to 100 | < 10 | 10 to 100 | < 10 | 10 to 100 | Cc1nn(C)c2c1-c1nccc(n1)Nc1cc(c(C#Cc3cnn(C(F)F)c3)cn1)N[C@@H](C)CCO2
> 1000 | 10 to 100 | > 1000 | > 1000 | > 1000 | 100 to 1000 | > 1000 | > 1000 | > 1000 | Cc1cc2nc(n1)-c1cnn(C)c1OCC[C@H](C)Nc1cc(ncc1C#Cc1cnn(C)c1)N2
< 10 | < 10 | 100 to 1000 | < 10 | < 10 | < 10 | 10 to 100 | < 10 | 10 to 100 | Cc1nn(C)cc1C#Cc1cnc2cc1N[C@@H](C)CCOc1c(c(C)nn1C)-c1nccc(n1)N2
< 10 | < 10 | 10 to 100 | < 10 | < 10 | < 10 | < 10 | < 10 | < 10 | COc1nn(C)cc1C#Cc1cnc2cc1NCC[C@H](C)Oc1c(c(C)nn1C)-c1nccc(n1)N2
< 10 | < 10 | 100 to 1000 | 10 to 100 | < 10 | < 10 | 10 to 100 | 10 to 100 | 10 to 100 | C[C@H]1CCNc2cc(ncc2C#Cc2cnn(C(F)(F)F)c2)Nc2ccnc(n2)-c2cnn(C)c2O1
< 10 | < 10 | 100 to 1000 | < 10 | < 10 | < 10 | 100 to 1000 | 10 to 100 | 10 to 100 | CCn1ncc2c1OCC[C@H](C)Nc1cc(ncc1C#Cc1cnn(C)c1)Nc1ccnc-2n1
10 to 100 | < 10 | > 1000 | > 1000 | 100 to 1000 | 10 to 100 | > 1000 | 100 to 1000 | 100 to 1000 | C[C@@H]1CCOc2c(cnn2C)-c2nccc(n2)Nc2cc(c(C#Cc3cnn(C4CC4(F)F)c3)cn2)N1 (stereo partly drawn)
< 10 | < 10 | 10 to 100 | < 10 | < 10 | < 10 | < 10 | < 10 | 10 to 100 | Cc1nn(C)c2c1-c1nccc(n1)Nc1cc(c(C#Cc3ccc(C(=O)N4CCC(O)CC4)cc3)cn1)N[C@@H](C)CCO2
< 10 | < 10 | 100 to 1000 | < 10 | < 10 | < 10 | 10 to 100 | < 10 | < 10 | C[C@H]1CCOc2c(cnn2C)-c2nccc(n2)Nc2cc(c(C#Cc3cnn(C4CCOCC4)c3)cn2)N1
< 10 | < 10 | 100 to 1000 | < 10 | < 10 | < 10 | 10 to 100 | < 10 | 10 to 100 | C[C@H]1CCOc2c(cnn2C)-c2nccc(n2)Nc2cc(c(C#Cc3cnn(C(F)F)c3)cn2)N1
10 to 100 | < 10 | > 1000 | > 1000 | 10 to 100 | < 10 | > 1000 | > 1000 | 100 to 1000 | Cn1ncc2c1OC[C@@H](F)CNc1cc(ncc1C#Cc1cnn(C(F)(F)F)c1)Nc1ccnc-2n1
< 10 | < 10 | 100 to 1000 | < 10 | < 10 | < 10 | 10 to 100 | < 10 | 10 to 100 | Cc1nn(C)cc1C#Cc1cnc2cc1NCC[C@@H](C)Oc1c(c(C)nn1C)-c1nccc(n1)N2
< 10 | < 10 | > 1000 | 10 to 100 | < 10 | < 10 | 100 to 1000 | 10 to 100 | 10 to 100 | CCn1ncc2c1OCC[C@H](C)Nc1cc(ncc1C#Cc1cnn(C(F)F)c1)Nc1ccnc-2n1
< 10 | < 10 | 100 to 1000 | 10 to 100 | < 10 | < 10 | 100 to 1000 | 100 to 1000 | 100 to 1000 | C[C@H]1CCOc2c(cnn2CC(F)(F)F)-c2nccc(n2)Nc2cc(c(C#Cc3cnn(C)c3)cn2)N1
10 to 100 | < 10 | > 1000 | 100 to 1000 | 10 to 100 | < 10 | > 1000 | > 1000 | 100 to 1000 | CC(C)n1ncc2c1OCC[C@H](C)Nc1cc(ncc1C#Cc1cnn(C(F)F)c1)Nc1ccnc-2n1
10 to 100 | < 10 | > 1000 | 100 to 1000 | 10 to 100 | < 10 | 100 to 1000 | 100 to 1000 | 100 to 1000 | C[C@H]1CCOc2c(cnn2C)-c2nccc(n2)Nc2cc(c(C=Cc3cnn(C)c3)cn2)N1
> 1000 | 100 to 1000 | > 1000 | > 1000 | > 1000 | 10 to 100 | > 1000 | > 1000 | > 1000 | Cc1cnc2nc1Nc1cc(c(C#Cc3cnn(C)c3)cn1)N[C@@H](C)CCOc1c-2cnn1C
100 to 1000 | 10 to 100 | > 1000 | > 1000 | > 1000 | 10 to 100 | > 1000 | > 1000 | > 1000 | Cn1ncc2c1OC[C@H](F)CNc1cc(ncc1C#Cc1cnn(CC(F)(F)F)c1)Nc1ccnc-2n1

From patent US20260384449A1, “MACROCYCLIC AMINOPYRIDINE COMPOUNDS AS EGFR INHIBITORS” (published 2026)
